Apparent affinities of Ab-14 variants for a coronavirus HR2 peptide

Source: Engelhart et al. 2022 (doi:10.1038/s41597-022-01779-4), MIT Lincoln Laboratory and A-Alpha Bio; data file from the FLAb repository.

All variants were tested on one target, the spike HR2 peptide PDVDLGDISGINAS (SARS-CoV-2).

Parent scFv Ab-14: VH joined to VL by the linker GGGGSGGGGSGGGGS. Changes lie in the heavy chain CDRs alone.
VH: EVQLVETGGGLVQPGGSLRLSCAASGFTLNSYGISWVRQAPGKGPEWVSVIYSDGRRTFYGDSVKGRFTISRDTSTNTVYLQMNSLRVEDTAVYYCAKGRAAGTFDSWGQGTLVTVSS
VL: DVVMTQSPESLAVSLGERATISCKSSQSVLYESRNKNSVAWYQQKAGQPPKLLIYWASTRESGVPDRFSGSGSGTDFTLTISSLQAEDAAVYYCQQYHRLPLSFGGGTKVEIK

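Phage display of a naive human antibody library on the peptide gave the parent. The library (AAYL49) carries one to three amino acid substitutions per variant, with no insertions or deletions. In AlphaSeq, yeast of one mating type display the scFv and yeast of the other type display the target. After mating in shaken culture at 30 °C for 16 h, diploids were selected and their barcode pairs sequenced. The ratio of observed to expected reads was calibrated, replicate by replicate, on BCL2-family standards whose Kd was known from biolayer interferometry. The assay was run in three technical replicates.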

Variants are written as CDR1, CDR2 and CDR3 of the heavy chain (limits as in the source). Parent: GFTLNSYGIS, VIYSDGRRTFYGDSVK, GRAAGTFDS.
Affinities are written as log10 Kd with Kd in nM; a lower number is a better binder.
A mean of the replicates is given; it leaves out those without a signal.
Where no diploid with the target was found in any replicate, the entry reads "no signal": below detection, most likely a poor binder, though not proof of it.
Nonspecific signal, from three strains lacking the peptide, appeared in 15% of pairings of library AAYL49, centred on 4.06 (5% of these signals below 2.83); values are not corrected for it. For each scFv, signals with the empty controls are counted beside the result.

CDR-H1	CDR-H2	CDR-H3	log10 Kd (nM), mean	seen in	empty controls
GFTLNSYGIS	VIYSDGRRTFYGDSVK	KRAAGTYDS	2.56	3/3	2/9
GFTLNSYQIS	KPYSDGRRTFYGDSVK	GRAAGTFDS	no signal	0/3	1/9
GFTLNSYQIS	VIYSDGRRTFYGQSVK	GRAAYTFDS	no signal	0/3	0/9
GFELNSYGLS	VIYSDGRRTFYGDSVK	GRAAGTFDS	2.04	3/3	2/9
GFTLNSDGIS	VIYSDGRRTCYGDSVK	GQAAGTFDS	no signal	0/3	1/9
GFTNNSYGIS	VIYSDGRRTFYGDSVK	GYADGTFDS	4.21	1/3	0/9
GFTLFSYLIS	VIYSDGRRTFYGDSVK	GRAAGTFDS	4.39	1/3	0/9
GSTLNSYGIS	VIYSDGRRTFYGDSYK	GRSAGTFDS	4.65	1/3	3/9
GATLNSYGWS	VIYSDGRRTFYGDSVK	GRAAGTIDS	no signal	0/3	1/9
GFTLNSYGIS	VIYSDGRDTFTGDSVK	GGAAGTFDS	no signal	0/3	1/9
GFTLNGYGIS	VIYSDGRRTFYGDRVC	GRAAGTFDS	no signal	0/3	0/9
AFTLNSYGIS	VIYSLGRRTFYGDLVK	GRAAGTFDS	6.22	1/3	1/9
GFTLNSYQIN	VIYSHGRRTFYGDSVK	GRAAGTFDS	no signal	0/3	1/9
GFILNSYGIS	CIYSDGRRTFPGDSVK	GRAAGTFDS	3.71	1/3	2/9
VFWLNSYGIS	VIYSKGRRTFYGDSVK	GRAAGTFDS	4.10	2/3	3/9
GFTLNSYGIS	VIYSDGRRTFYGDSVK	HRMAGTFDA	no signal	0/3	0/9
GFTLNSYGIS	VIYSQGRRTFYGDSVK	GRAAGTKDN	5.03	1/3	0/9
GFTLNRYGIS	VIYSDGRRTFNGDSVK	GRAAGTVDS	4.84	2/3	2/9
GFTLNSYGIS	VIYSDGYRTFYGDSVN	GRAYGTFDS	2.97	2/3	1/9
GFTLNSYGIS	SIYSDGRRTFYGDSVK	GRMAGTFDW	no signal	0/3	1/9
GFTLNSYGIS	VIMQDGRRTFYGDSVK	GIAAGTFDS	no signal	0/3	0/9
GFTLNSYGIS	VIYSSGRRTFYGDSVK	TRFAGTFDS	no signal	0/3	0/9
AFTLNSYGIS	VIYSDGRRTFYGDMVK	GRLAGTFDS	1.74	3/3	1/9
GKTLNSYTIS	VIYSDGRRTFYGGSVK	GRAAGTFDS	no signal	0/3	2/9
GFTLNSFGIS	VIYSDGRRTFYGISVK	GRAAGDFDS	3.90	1/3	3/9
GFTLNKYGIV	VIYSDGRRTFYGDSVK	GRNAGTFDS	no signal	0/3	1/9
GFTLNSYGIS	VIYSDHRRTWYGDSVK	GRAAMTFDS	4.69	1/3	1/9
GFTLNSYGIS	VMYSDGRRTFYGSSVK	GRAAGTFDS	3.26	3/3	1/9
GFTLMSYGIS	VIDSDWRRTFYGDSVK	GRAAGTFDS	4.43	1/3	4/9
GFTLNSYGIS	VIYSDGRDTFYGDSVK	IRALGTFDS	5.54	1/3	1/9
GFTLNSYGIS	VIYSPGRRTLYGDSVK	GMAAGTFDS	no signal	0/3	0/9
WFTLNSYGIS	VIKSDGRRTFYGDSVK	GSAAGTFDS	no signal	0/3	0/9
YFTLNSYGIS	VIYSDGRRHFYKDSVK	GRAAGTFDS	3.16	1/3	0/9
GFTLNSYGIS	VITSDQRRTFYGDSVK	GRAAGTLDS	no signal	0/3	1/9
GLTLNSYGIS	VIYSDGQRTFYGDSVK	NRAAGTFDS	no signal	0/3	1/9
WFTLNEYGIS	VIYSDGRRTFYGDSVK	GRAEGTFDS	2.13	3/3	2/9
GFTLNSYGIQ	VIYSDGRRTFYGDSQK	GRAAGTFDS	no signal	0/3	0/9
GFTLNSYGIS	VIYSDGRRTFWGDSVK	GKAAGTFDY	no signal	0/3	5/9
GFTLNSYGIN	VINSDGRRTFYHDSVK	GRAAGTFDS	no signal	0/3	1/9
GFYLNSYGIQ	VIYSDGRRTFYGDSVK	GRAGGTFDS	3.01	1/3	0/9
QFTLFSYGIS	VIYSDGRRTFYGDSVK	GRAAGTFMS	3.76	3/3	0/9
GFTLNSYGIS	VIYSDGRRTFYTDPVK	GRAAGTFDS	1.24	3/3	0/9
GFTLNSYGIS	VIYSDANRTFYGDSVK	GRAAVTFDS	no signal	0/3	0/9
GFTLNPYGIS	VIYSDGRRTFYGDSVK	GRAAGSFDS	4.79	2/3	3/9
GFTLNSYGIS	VIYSDMRRTFYGDMVK	MRAAGTFDS	no signal	0/3	2/9
GFTLNSYGMS	VIYSDGRRGFYGDSVK	GRAQGTFDS	no signal	0/3	0/9
GFTLNSYGIS	VIYHEGRRTFYGDSVK	GRAAVTFDS	no signal	0/3	0/9
GVTLNSYGMS	VIYSDGRRTFYGDIVK	GRAAGTFDS	no signal	0/3	2/9
QFTLNSYEIS	VIYSDGRRTFVGDSVK	GRAAGTFDS	2.45	3/3	3/9
GFTPNVYGIS	VIYSDGRRTFYGDSVK	GRAAGWFDS	4.45	2/3	3/9
GFTCNSYGIS	VIYSNGRRTFYGYSVK	GRAAGTFDS	no signal	0/3	0/9
GFTLHSYGIS	VIYSDGRRTQYGSSVK	GRAAGTFDS	no signal	0/3	1/9
GFTLNSPGIS	VIYMDGRRTNYGDSVK	GRAAGTFDS	5.21	2/3	1/9
GFTLNSYGIS	VIYSDGRRTFYGDSIF	GRAAGTFDS	2.86	1/3	0/9

The opening 6 entries, copied out:

CDR-H1	CDR-H2	CDR-H3	log10 Kd (nM), mean	seen in	empty controls
GFTLNSYGIS	VIYSDGRRTFYGDSVK	KRAAGTYDS	2.56	3/3	2/9
GFTLNSYQIS	KPYSDGRRTFYGDSVK	GRAAGTFDS	no signal	0/3	1/9
GFTLNSYQIS	VIYSDGRRTFYGQSVK	GRAAYTFDS	no signal	0/3	0/9
GFELNSYGLS	VIYSDGRRTFYGDSVK	GRAAGTFDS	2.04	3/3	2/9
GFTLNSDGIS	VIYSDGRRTCYGDSVK	GQAAGTFDS	no signal	0/3	1/9
GFTNNSYGIS	VIYSDGRRTFYGDSVK	GYADGTFDS	4.21	1/3	0/9